# scFv variants of Ab-14 (heavy chain) against a SARS-CoV-2 spike peptide

Values reported by Li et al. 2023, doi:10.1038/s41467-023-39022-2 (FLAb copy).

All variants were tested on one target, the spike HR2 peptide PDVDLGDISGINAS (SARS-CoV-2).

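These sequences belong to a second round, designed from the earlier measurements on random variants of the parent. Their group label is 14H_En_HC (En: ensemble of fine-tuned language models; HC: hill climbing; a sequence that several methods proposed may carry one label only). Affinity was read by AlphaSeq, a pooled yeast mating assay with surface-displayed partners. Pairs that bind mate more often; barcode pairs of the diploids are counted by sequencing. Each replicate has its own calibration line, from reference interactions of the BCL2 family. Each pool was mated in six replicate cultures.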

Parent: Ab-14, a human scFv built as VH, the linker GGGGSGGGGSGGGGS, VL. Only the CDRs of the heavy chain vary.
VH: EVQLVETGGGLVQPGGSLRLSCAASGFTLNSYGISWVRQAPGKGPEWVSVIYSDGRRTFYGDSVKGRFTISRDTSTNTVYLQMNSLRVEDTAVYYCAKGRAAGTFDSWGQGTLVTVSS
VL: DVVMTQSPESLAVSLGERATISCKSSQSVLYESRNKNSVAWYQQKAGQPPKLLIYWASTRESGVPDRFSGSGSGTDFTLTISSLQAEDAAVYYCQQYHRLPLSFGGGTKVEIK

Variants are written as CDR1, CDR2 and CDR3 of the heavy chain (limits as in the source). Parent: GFTLNSYGIS, VIYSDGRRTFYGDSVK, GRAAGTFDS.
Numbers give log10(Kd / nM), so 0 is 1 nM and 3 is 1 µM. Smaller is tighter.
A mean of the replicates is given; it leaves out those without a signal.
An entry "ND" has no value in the source: the pair was not observed among the diploids in that replicate. This suggests poor binding but is not conclusive.
The parent sequence was in this pool as ten entries: three were never detected, three once, and four in most replicates, with averages from 0.34 to 2.37.
Three control strains display no target. For all heavy chain designs, 1% of the pairings with them gave a signal, with a median of 2.08 and one signal in twenty below 0.84, so weak values seen in few replicates may be background. The control count says in how many pairings with the empty strains this scFv gave a signal, with their mean in brackets.
A sequence measured in both rounds can read differently, since the two assays cover different ranges.
In the paper, a design with two or fewer of six values counts as a poor binder.

CDR-H1 | CDR-H2 | CDR-H3 | log10 Kd (nM) by replicate | mean, log10 nM | empty controls
GFDINEYGIS | VIYADGRRTFYADSVK | GNNGGTFDL | 0.38 / 0.66 / 0.60 / 0.53 / -0.19 / -0.06 | 0.32 | 0 of 18
GFDLNEYGIS | VIYADGHRTFYSDSVK | GQLAGTFDA | -0.58 / -0.66 / -0.80 / -0.95 / -0.64 / -0.72 | -0.73 | 0 of 18
GFNLNEYGIS | VIYADGRRTFYSDSVK | GEEAGTFDV | -0.29 / -0.64 / -0.58 / -0.76 / -0.58 / -0.65 | -0.58 | 2 of 18 (2.44)
GFDLDEYGIS | VIYADGRRTFYQDSVK | GQAAGTFDM | 0.01 / -0.14 / -0.27 / -0.16 / -0.35 / -0.11 | -0.17 | 0 of 18
GFDLNEYGIS | VIYADGRRTAYIDSVK | GEAAGTFDF | -0.15 / -0.64 / -0.98 / -0.81 / -0.49 / -0.64 | -0.62 | 0 of 18
GFNLNEYGIS | VIYADGMRTFYTDSVK | GETAGTFIQ | 0.56 / -0.09 / 0.01 / -0.16 / 0.27 / -0.19 | 0.07 | 0 of 18
GFDLNEYGIS | VIYADGKRTFYADSVK | GEYAGTFDI | 0.34 / -0.12 / 0.81 / -0.02 / 0.58 / -0.48 | 0.18 | 0 of 18
GFDLNEYGIS | VIYADGKRTFYVDSVK | GETAGTFDS | 0.26 / -0.59 / -0.59 / -0.01 / -0.23 / 0.37 | -0.13 | 0 of 18
GFDLNEYGIS | VIYADGRRTFYKDSVK | GEAAGTFDV | 0.58 / 0.33 / 0.15 / -0.18 / 0.04 / 0.19 | 0.18 | 0 of 18
GFDLNEYGIS | VIYADGRRTFYIDSVK | GTNAGTFDK | -0.28 / -0.55 / -0.54 / -0.75 / -0.43 / -0.29 | -0.47 | 0 of 18
GFSLDEYGIS | VIYADGRRTAYADSVK | GNVAGTFDS | ND / ND / ND / ND / ND / ND | ND | 0 of 18
GFDLNEYGIS | VIYADGRRTFYTDSVK | GNHAGTFLV | ND / ND / ND / ND / ND / ND | ND | 0 of 18
GFDLNEYGIS | VIYADGRRTAYSDSVK | GEAAGFFDQ | ND / ND / ND / ND / ND / ND | ND | 0 of 18
GFDLDEYGIS | VIYADGMRTFYADSVK | GNVAGTFDS | 0.13 / -0.51 / -0.35 / -0.63 / -0.66 / -0.10 | -0.35 | 1 of 18 (4.08)
GFDINEYGIS | VIYADGKRTFYTDSVK | GGNAGTFDV | -0.25 / -0.38 / -0.83 / -0.56 / -0.34 / -0.56 | -0.49 | 0 of 18
GFNLDEYGIS | VIYADGRRTFYQDSVK | GEVAGTFDA | -0.34 / -0.75 / -0.45 / -0.52 / -0.61 / -0.37 | -0.51 | 0 of 18
GFSLDEYGIS | VIYADGQRTFYADSVK | GNVAGTFDS | -0.99 / -0.93 / -1.10 / -1.36 / -1.47 / -1.00 | -1.14 | 1 of 18 (1.65)
GFDINEYGIS | VIYADGRRTFYADSVK | GQVAGTFDS | ND / ND / 0.48 / ND / ND / ND | 0.48 | 0 of 18
GFSLDEYGIS | VIYADGRRTFYADDVK | GNVAGTFDV | -0.80 / -0.89 / -0.98 / -0.96 / -0.95 / -1.01 | -0.93 | 0 of 18
GFDLEDYGIS | VIYADGRRTFYADSVK | GNVAGTFDM | -0.81 / -0.37 / -1.19 / -0.93 / -1.21 / -0.25 | -0.79 | 0 of 18
GFDLNEYGIS | VIYADGRRTYYADSVK | GQIAGTFDQ | -0.24 / -0.43 / -0.43 / -0.53 / -0.49 / -0.52 | -0.44 | 0 of 18
GFDLDEYGIS | VIYADGRRTYYADDVK | GNVAGTFDV | -0.53 / -0.62 / -0.55 / -0.68 / -0.69 / -0.59 | -0.61 | 0 of 18
GFNLNEYGIS | VIYADGQRTFYADSVK | GEIAGTFDF | -0.03 / 2.36 / -0.57 / 0.13 / 0.37 / -0.27 | 0.33 | 0 of 18
GFDLNEYGIS | VIYADGRRTFYADSVK | GNVAGTFIQ | ND / 1.72 / ND / ND / ND / 2.17 | 1.95 | 0 of 18
GFDLNEYGIS | VIYADGRRTFYADSVK | GQIAGTFDL | -0.50 / -0.72 / -0.61 / -0.81 / -0.59 / -0.42 | -0.61 | 1 of 18 (1.98)
GFNLNEYGIS | VIYADGRRTAYADSVK | GEIAGTFDF | -0.42 / -0.75 / -0.71 / -0.96 / -0.77 / -0.53 | -0.69 | 0 of 18
GFDLNEYGIS | VIYADGRRTAYIDSVK | GEVAGSFDS | -0.02 / -0.53 / -0.51 / -0.66 / -0.08 / 0.20 | -0.27 | 0 of 18
GFDLNEYGIS | VIYADGRRTAYSDSVK | GEAGGTFDM | 0.41 / -0.02 / 0.08 / -0.28 / 0.00 / 0.25 | 0.07 | 0 of 18
GFDLNEYGIS | VIYADGSRTFYADSVK | GENAGSFDQ | -0.05 / 1.42 / ND / 1.64 / 0.49 / 0.63 | 0.83 | 0 of 18
GFDLNEYGIS | VIYADGRRTFYADSVK | GQNAGTFTV | 0.30 / -0.14 / -0.61 / -0.11 / 0.20 / -0.21 | -0.09 | 0 of 18
GFDLNEYGIS | VIYADGRRTFYTDSVK | GETAGTFDV | -0.64 / -0.37 / -0.12 / -0.74 / -0.25 / -0.51 | -0.44 | 0 of 18
GFDLNEYGIS | VIYADGRRTFYIDSVK | GQVAGTFNV | -0.37 / -0.52 / 0.98 / ND / -1.29 / -0.02 | -0.24 | 0 of 18
GFDLNEYGIS | VIYADGRRTAYRDSVK | GTNAGTFDQ | ND / 0.59 / 0.45 / ND / ND / 0.33 | 0.46 | 0 of 18
GFDLNEYGIS | VIYADGRRTSYIDSVK | GEAAGTFNV | -0.36 / -0.51 / -0.64 / -0.62 / -0.44 / -0.41 | -0.50 | 0 of 18
GFDLNEYGIS | VIYADGLRTFYSDSVK | GENAGTFDV | 0.42 / 0.63 / 0.47 / 0.69 / 0.21 / 0.85 | 0.55 | 0 of 18
GFDIDEYGIS | VIYADGMRTFYTDSVK | GEVAGTFDA | -0.35 / -1.08 / -0.60 / -0.94 / -0.60 / -0.76 | -0.72 | 0 of 18
GFDLNEYGIS | VIYADGRRTFYIDSVK | GNNAGTFDS | -0.34 / -0.46 / -0.56 / -0.58 / -0.35 / -0.37 | -0.44 | 0 of 18
GFDLNEYGIS | VIYADGRRTFYSDSVK | GQLAGTFDQ | -0.22 / -0.57 / -0.35 / -0.56 / -0.42 / -0.26 | -0.39 | 0 of 18
GFDLNEYGIS | VIYADGRRTFYVDSVK | GVNAGTFDL | -0.39 / -0.41 / -0.69 / -1.07 / -0.98 / -0.70 | -0.71 | 0 of 18
GFDLNEYGIS | VIYADGMRKFYADKVK | GENAGTFDV | 0.27 / -0.84 / -0.91 / -0.92 / -0.69 / -0.40 | -0.58 | 1 of 18 (0.40)
GFDLEEYGIS | VIYADGRRTAYADKVK | GENAGTFDI | -0.30 / -0.33 / -0.45 / -0.56 / -0.35 / -0.56 | -0.42 | 0 of 18
GFDLNEYGIS | VIYADGRRTFYIDSVK | GTNAGTFDL | ND / ND / ND / ND / ND / ND | ND | 1 of 18 (1.56)
GFNLNEYGIS | VIYADGMRTFYTDSVK | GETAGTFII | ND / ND / ND / ND / ND / ND | ND | 0 of 18
GFDLNEYGIS | VIYADGMRTFYSDSVK | GTNGGTFDM | 1.33 / -0.19 / -0.01 / 0.06 / 0.28 / 0.18 | 0.27 | 0 of 18
GFDLNEYGIS | VIYADGRRTFYADSVK | GETAGTFVQ | 0.58 / 0.03 / 0.14 / -0.15 / -0.11 / -0.16 | 0.06 | 0 of 18
GFDLNEYGIS | VIYADGRRTFYSDSVK | GQLAGTFDF | -0.89 / -0.91 / -0.64 / -0.59 / -0.61 / 0.07 | -0.60 | 0 of 18
GFDLNEYGIS | VIYADGRRTFYIDSVK | GNLAGTFDQ | 0.08 / -0.02 / -0.12 / -0.49 / -0.83 / -0.22 | -0.27 | 0 of 18

A selection of 3 entries from above:

CDR-H1	CDR-H2	CDR-H3	log10 Kd (nM) by replicate	mean, log10 nM	empty controls
GFDLNEYGIS	VIYADGRRTFYTDSVK	GNHAGTFLV	ND / ND / ND / ND / ND / ND	ND	0 of 18
GFDLEDYGIS	VIYADGRRTFYADSVK	GNVAGTFDM	-0.81 / -0.37 / -1.19 / -0.93 / -1.21 / -0.25	-0.79	0 of 18
GFDINEYGIS	VIYADGKRTFYTDSVK	GGNAGTFDV	-0.25 / -0.38 / -0.83 / -0.56 / -0.34 / -0.56	-0.49	0 of 18